According to US20090202550A1 (WILEX, published 2009):

Biological target: full length GPI-linked D1D2D3 (cell surface uPAR) (human) (UniProt Q03405)
Assay: cell-based or functional assay

% induced migration (ATF) of monocytes, no antibody: 339%
Migration fold increase, no antibody: 3.4 fold
Substance: ATF, the N-terminal fragment of uPA (from UniProt P00749 21-155) (ligand)
